In doi:10.1101/2023.07.13.548902v1:

System: [H][C@@]1(O[C@H]2[C@H](O)[C@@H](O)[C@H](Oc3ccc([N+](=O)[O-])cc3)O[C@@H]2CO)O[C@H](CO)[C@H](O)[C@H](O)[C@H]1O
Assay: purified protein
Conditions: 50 °C, 30 min

Substance: AfCel7A (Aspergillus fumigatus Af293; D276C/G279C)
- Km (25 mM citrate pH 5.0, DSB1): 1240 ± 500 µM
- kcat (25 mM citrate pH 5.0, DSB1): 0.0522 ± 0.0033 s⁻¹

Substance: AfCel7A (Aspergillus fumigatus Af293; G460C/S465C)
- Km (25 mM citrate pH 5.0, DSB4): 750 ± 30 µM
- kcat (25 mM citrate pH 5.0, DSB4): 0.0647 ± 0.00017 s⁻¹

Substance: AfCel7A (Aspergillus fumigatus Af293; I432C/T416C)
- Km (25 mM citrate pH 5.0, DSB3): 81 ± 9 µM
- kcat (25 mM citrate pH 5.0, DSB3): 0.162 ± 0.00083 s⁻¹

Substance: AfCel7A (Aspergillus fumigatus Af293; D322C/G327C)
- Km (25 mM citrate pH 5.0, DSB2): 1960 ± 200 µM
- kcat (25 mM citrate pH 5.0, DSB2): 0.056 ± 0.0017 s⁻¹
